# Test results from paper PMC11106745 (ACS Chemical Biology, 2024).
# How the values were obtained:
# MacroD1 = target: T1, MacroD1 (Homo sapiens, UniProt Q9BQ69); test: IC50 curves of binding to MacroD1 (Figure S2)
# T1 construct: made in house
# T1 sequence (Q9BQ69 1-325): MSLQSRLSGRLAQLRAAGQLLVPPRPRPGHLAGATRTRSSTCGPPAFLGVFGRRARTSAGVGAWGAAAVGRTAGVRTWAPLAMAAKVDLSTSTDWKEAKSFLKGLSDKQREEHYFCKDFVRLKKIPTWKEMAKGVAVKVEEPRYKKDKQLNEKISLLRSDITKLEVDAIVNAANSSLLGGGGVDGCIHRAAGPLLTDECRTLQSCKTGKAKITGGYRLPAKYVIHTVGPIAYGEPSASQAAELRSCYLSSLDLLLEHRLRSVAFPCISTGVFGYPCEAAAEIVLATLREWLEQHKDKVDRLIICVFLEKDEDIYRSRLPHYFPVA
# MacroD2 = target: T2, MacroD2 (Homo sapiens, UniProt A1Z1Q3); test: IC50 curves of binding to MacroD2 (Figure S2)
# T2 construct: made in house
# T2 sequence (A1Z1Q3 1-425): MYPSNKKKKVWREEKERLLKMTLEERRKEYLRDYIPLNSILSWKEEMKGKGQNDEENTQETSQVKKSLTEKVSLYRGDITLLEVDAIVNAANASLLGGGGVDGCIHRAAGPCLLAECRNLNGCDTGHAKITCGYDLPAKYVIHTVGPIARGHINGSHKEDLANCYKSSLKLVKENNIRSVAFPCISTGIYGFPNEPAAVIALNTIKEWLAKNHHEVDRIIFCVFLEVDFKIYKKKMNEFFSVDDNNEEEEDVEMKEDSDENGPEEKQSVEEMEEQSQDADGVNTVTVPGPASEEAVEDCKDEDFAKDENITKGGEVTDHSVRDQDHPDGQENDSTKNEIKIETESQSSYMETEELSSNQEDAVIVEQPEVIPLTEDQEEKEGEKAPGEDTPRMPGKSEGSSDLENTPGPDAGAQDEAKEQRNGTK
substance,measurement,setting,value
"adenosine diphosphate ribose [ADPr, reference compound]",IC50,MacroD1,1500 nM
same,IC50,MacroD2,1000 nM
